The data set has as its system Nc1ncnc2c1ncn2[C@@H]1O[C@H](COP(=O)(O)OP(=O)(O)OP(=O)(O)O)[C@@H](O)[C@H]1O. The data set is described as follows: purified protein. The following applies: 100 mM HEPES pH 7.4, 2.5 mM MgSO4, 30 °C, purified His6-YbhF alone.

The Km is the substrate concentration at which the rate is half of its maximum. The term Vmax denotes the rate approached at saturating substrate. For “YbhF (Overexpression-YbhF) (Escherichia coli K-12)”, the Km was 500 ± 100 µM and the Vmax is 0.192 µmol/min/mg.

The record behind these values is paper PMC7190983, “A Putative Efflux Transporter of the ABC Family, YbhFSR, in Escherichia coli Functions in Tetracycline Efflux and Na^+(Li^+)/H^+ Transport” (Frontiers in Microbiology, 2020).
